Lamin A splicing – changes lamin A minigene splicing in HeLa cells | HeLa LMNA splicing GFP/RFP minigene ratio, 48 h | Potency, µM (series often up to 46.1 µM), without a hit: at the highest dose ratio change, negative = inhibition, usual class: inhibitors | 0.01% of 200,000 active | AID 1487; active means well fitted inhibition curve with a large enough effect in the signal ratio, with a control signal flat, not every such curve was filed as active; inconclusive means small, poorly fitted or top-dose-only effect, or effect the other way, or a change in a side signal; the % refers to the signal ratio; further: potency means the concentration at half of the fitted maximal effect; on the % scale 0 is the no-effect control and ±100 the full control effect
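S3 HeLa stable clones carrying a lamin A-EGFP splicing minigene plus DsRed2 were seeded at 600 cells/well in Opti-MEM with 2% FBS, pin-dosed and incubated 48 h at 37°C. Acumen cytometry (488 nm) gave the GFP/RFP total-intensity ratio.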
ALDH1A1 inh – ALDH1A1 (human) enzyme inhibition. Purified ALDH1A1, NADH fluorescence, propionaldehyde substrate. AID 1030. Potency, µM (doses to about 75.3 µM), for the others: at the top dose activity, negative = inhibition, actives largely listed as inhibitors. 7.3% of 220,000 active; active means well fitted inhibition curve with a large enough effect, not every such curve was filed as active; inconclusive means small, poorly fitted or top-dose-only effect, or another doubt; inactive means no such curve, though single readings can be large or run the other way;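 further: potency means the concentration at half of the fitted maximal effect; plate controls were no enzyme wells and a reference inhibitor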
Sfp inh – Sfp phosphopantetheinyl transferase inhibition | Q9F4F7 | Biochemical Sfp PPTase activity, qHTS | Potency, µM, inactives show max response, negative = inhibition, usual class: inhibitors | actives 3.5% (n = 310,000) | AID 1490; active = well fitted inhibition curve with a large enough effect; inconclusive = small, poorly fitted or top-dose-only effect, or another doubt; inactive = no such curve, though single readings can be large or run the other way;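 also: the enzyme is Sfp with the accession as filed and its product quenches rhodamine fluorescence; potency is read from the fitted curve at half-maximal effect; 0% = enzyme reaction without inhibitor and -100% = no enzyme wells; top concentration of the series not given in the record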
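Buffer: 50 mM Hepes-Na pH 7.6, 10 mM MgCl2, 0.01% Nonidet P-40, 0.01% BSA. Enzyme 15 nM, pre-exposed to compound 15 min; substrates then added and fluorescence change tracked over 30 min.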
JMJD2E inh – blocks human JMJD2E demethylase activity. B2RXH2. JMJD2E catalytic domain, FDH-coupled NADH fluorescence (FDH is formaldehyde dehydrogenase). Potency, µM (highest dose often 57.1 µM), for the others: at the highest dose activity change, negative = inhibition, most hits filed as inhibitors. 1.6% of 230,000 active. AID 2147; active means well fitted inhibition curve with a large enough effect, not every such curve was filed as active; inconclusive means small, poorly fitted or top-dose-only effect, or another doubt; inactive means no such curve, though single readings can be large or run the other way;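 further: potency means the concentration at half of the fitted maximal effect; 0% = wells with enzyme and -100% = buffer wells without enzyme; nearly all actives have a fitted effect of over 50% in size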
G9a block – inhibitors of human histone lysine methyltransferase G9a. G9a H3K9 monomethylation, AlphaScreen, 2 h. Potency, µM (top dose mostly 102 µM), without a hit: top-dose activity, negative = inhibition, actives largely listed as inhibitors. 8.8% of 350,000 active. AID 504332; further: potency means the concentration at half of the fitted maximal effect; on the % scale 0 is the no-effect control and ±100 the full control effect; nearly all actives have a fitted effect of over 75% in size
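Chemiluminescent proximity detection of H3K9 monomethylation, read after 10 min bead incubation in the dark. Reaction: 20 nM G9a, 500 nM biotin-H3K9 peptide, 20 uM SAM cofactor, 2 h, room temperature, following 15 min enzyme-compound preincubation.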
miR-21 reporter – raises the signal of a miR-21 reporter | HeLa miR-21 FLuc reporter, luciferase, 48 h | Potency, µM (highest dose often 38.3 µM), for inactives: at the highest dose reporter change, positive = more light | 340,000 tested, under 10 active | AID 2288; active = well fitted rising curve with a large enough effect; inconclusive = small, poorly fitted or top-dose-only effect; inactive = no such curve, though single readings can be large or run the other way;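 also: % of control where 0% means no effect; miR-21 action dims this reporter so a rising signal means less miR-21 action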
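HeLa miR-21-FLuc reporter line, endogenous miR-21; 2000 cells/well in DMEM/10% FBS; compound titration up to ~40uM final, 48 h, 37 degree Celsius; luciferase detection reagent, 15 min lysis, CCD luminescence.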
An asterisk follows results filed as active; u = inconclusive; x = no result; ! = a repeat was not active; [ ] = remark or other dose. In the library only some 13% were active in any assay of this set; here they are far more common. Unless noted, the call rests on the fitted dose curve; in most records, active means well fitted curve in the direction sought with a large enough effect; inconclusive means small, poorly fitted or top-dose-only effect, or another doubt; inactive means no such curve, though single readings can be large; an effect the other way counts as inactive or inconclusive.

The line under a structure holds: Lamin A splicing	ALDH1A1 inh	Sfp inh	JMJD2E inh	G9a block	miR-21 reporter
1) Cc1nn2c3c(cnc2c1-c1ccccc1)C(=O)CC(c1ccco1)C3 (stereo not drawn)
  12%	25µM*	89µM*	-11%	u	-6%
2) CC(=O)O[C@@]1(C(C)=O)CCC2C3C=C(C)C4=CC(=O)CCC4(C)C3CCC21C (stereo partly drawn)
  x	7%	-5%	2%	-25%[2.33 µM]	x
3) C=C1CC2C3C=C(C)C4=CC(=O)CCC4(C)C3CCC2(C)[C@@]1(OC(C)=O)C(C)=O (stereo partly drawn)
  u	x	-10%	x	18µM*	x
4) C=CCOCCN1C(=O)C2C3C=CC(C2C1=O)C1C2C(=O)N(CCOCC=C)C(=O)C2C31 (stereo not drawn)
  18%[46 µM]	14µM*	2%	-1%	-48%	-1%
5) COCCn1nnnc1C(C(C)C)N1CCOCC1 (stereo not drawn)
  8%	-2%	-8%	-3%	79µM*	5%
6) O=C(NCCCO)C(=O)NCC(c1ccc2c(c1)OCO2)N1CCOCC1 (stereo not drawn)
  -9%[46 µM]	x	x	x	-2%[59 µM]	-4%
7) S=c1[nH]nc(C2CCCCC2)n1/N=C/C(Cl)=C\c1ccccc1
  u	5%	3%	-3%	25µM*	-27%
8) CC(=C/c1ccccc1)/C=N/n1c(C)n[nH]c1=S
  x	x	-7%	x	x	-25%
9) S=c1[nH]nc(C2CCCCC2)n1/N=C/C=C/c1ccccc1
  10%	3%	-2%	2%	10µM*	-5%
10) O=C(NCc1ccccc1F)C(=O)NCC(c1ccco1)S(=O)(=O)c1cccs1 (stereo not drawn)
  16%[46 µM]	x	x	x	-6%[59 µM]	-4%

Overlap with the part before: five entries, followed by the next part.
The line under a structure holds: Lamin A splicing	ALDH1A1 inh	Sfp inh	JMJD2E inh	G9a block	miR-21 reporter
6) O=C(NCCCO)C(=O)NCC(c1ccc2c(c1)OCO2)N1CCOCC1 (stereo not drawn)
  -9%[46 µM]	x	x	x	-2%[59 µM]	-4%
7) S=c1[nH]nc(C2CCCCC2)n1/N=C/C(Cl)=C\c1ccccc1
  u	5%	3%	-3%	25µM*	-27%
8) CC(=C/c1ccccc1)/C=N/n1c(C)n[nH]c1=S
  x	x	-7%	x	x	-25%
9) S=c1[nH]nc(C2CCCCC2)n1/N=C/C=C/c1ccccc1
  10%	3%	-2%	2%	10µM*	-5%
10) O=C(NCc1ccccc1F)C(=O)NCC(c1ccco1)S(=O)(=O)c1cccs1 (stereo not drawn)
  16%[46 µM]	x	x	x	-6%[59 µM]	-4%
11) COc1cc(O)c(C(CC(=O)N2CCN(c3ccccc3)CC2)c2ccc(N(C)C)cc2)c(OC)c1 (stereo not drawn)
  x	x	89µM*!	-23%	u	8%
12) COc1cc(O)c(C(CC(=O)N2CCCC(C)C2)c2ccc(N(C)C)cc2)c(OC)c1 (stereo not drawn)
  x	x	0%	3%	u	10%
13) O=C(CCc1nnc2n(Cc3ccc(F)cc3)c(=O)c3ccccc3n12)N1CCN(c2ccccn2)CC1
  x	x	5%	x	4%[59 µM]	2%
14) COCC(=O)Nc1sc2c(c1C(=O)OC)CCCC2
  -8%	u	-7%	-4%	8%[59 µM]	-11%
15) CCCCOC(=O)Nc1sc2c(c1C(=O)OC)CCC2
  2%	u	50µM*	2%	u	-5%
16) CCOC(=O)C(NC(=O)CC)(Nc1nc2c(s1)CCCC2)C(F)(F)F (stereo not drawn)
  -7%	10%	10%	10%	u	1%
17) CCOC(=O)NC(Nc1sc2c(c1C(N)=O)CCCC2)(C(=O)OCC)C(F)(F)F (stereo not drawn)
  -4%	-6%	35µM*	u	13µM*	-1%
18) CCOC(=O)Nc1sc2c(c1C(=O)OCC)CCC2
  0%	u	40µM*	1%	5%	-2%
19) CCOC(=O)c1c(NC(=O)COc2cccc3c2CCN(C)C3=O)sc2c1CCC2
  u	20µM*	u	u	2%[59 µM]	-5%
20) Cc1c(Br)c([N+](=O)[O-])nn1CC(=O)Nc1ccc2nc3n(c(=O)c2c1)CCCC3
  x	x	1%	x	x	0%
21) COc1cc2nc(NC(=O)c3ccccc3)sc(=O)c2cc1OC
  x	x	12%	x	2%	-1%
22) Cc1cccc(CNC(=O)CSCc2cnn(-c3ccccc3)c2-n2cccc2)c1
  x	x	x	x	7%[59 µM]	0%
23) COc1ccccc1C(CNC(=O)CCNC(=O)c1ccccc1Cl)N1CCCC1 (stereo not drawn)
  x	x	x	x	6%[59 µM]	x
24) CCc1nn(CC(=O)NCc2ccc(OC)c(OC)c2)c(=O)c2cc3sc(C)cc3n12
  x	x	x	x	-1%[59 µM]	-3%
25) CCOC(=O)c1c(/N=C/c2ccc(C)cc2O)sc2c1CCC2
  -17%	9%	-15%	1%	45µM*	-6%
26) O=C(NCc1ccccc1)c1ccccc1NC(=O)C1CCCCC1
  x	x	18%	x	53%	-4%
27) CCCCNC(=O)C1CCN(Cc2ccc(OCc3ccccc3)c(OC)c2)CC1
  x	x	-8%	x	14µM*	-38%
28) CCOC(=O)N1CCN(Cc2ccc3ccccc3c2)CC1
  x	x	-24%	x	x	0%
29) COc1ccc(CN2CCC(C(N)=O)CC2)cc1OCc1ccccc1
  x	x	-16%	x	x	-6%
30) CCOCCCNC(=O)C1CCN(Cc2cccc(OCc3ccccc3)c2)CC1
  x	x	-2%	x	35µM*	5%
31) CCCCN(C)C(=O)C1CCN(Cc2ccc(OCc3ccccc3)cc2)CC1
  u	-13%	-15%	u	u	-2%
32) COc1cc(CN2CCC(C(=O)NCC(C)(C)CN(C)C)CC2)ccc1OCc1ccccc1
  x	x	-23%	x	10µM*	-29%
33) CCOC(=O)N1CCN(C(=O)C2CCN(Cc3cccc(OCc4ccccc4)c3)CC2)CC1
  u	14µM*	-23%	u	14µM*	3%
34) COc1cccc2c1Oc1ncccc1N(C(=O)CCC(=O)NCc1ccccc1F)C2
  x	x	5%	x	43%	-1%
35) CCOCCCNC(=O)C1CCN(Cc2ccc(OCc3ccccc3)c(OC)c2)CC1
  x	x	-1%	x	50µM*	-32%
36) Cc1ccc(-n2nc3c(c2NC(=O)c2ccc4c(c2)OCO4)CS(=O)C3)c(C)c1 (stereo not drawn)
  x	x	x	x	8%	x
37) CC1CCCC2(C1)NC(=S)N(c1ccccc1)N2 (stereo not drawn)
  u	u	50µM*	u	u	-24%
38) S=C1NC2(CCCCC2)NN1c1ccccc1
  u	u	-61%	u	14µM*	-25%
39) O=C1NC2(NN1c1ccccc1)C1CC3CC(C1)CC2C3 (stereo not drawn)
  25%	4%	14%	-5%	u	-3%
40) CC1(C)CC2(C)Nc3ccccc3N2C(=S)N1 (stereo not drawn)
  -5%	19%	-17%	-1%	6%[59 µM]	-10%
41) CC1CC(C)(C)CC2(C1)NC(=S)N(c1ccccc1)N2 (stereo not drawn)
  u	16µM*	u	u	28µM*	-21%
42) CC1CCC2(CC1)SCC(=O)N2c1ccccc1 (stereo not drawn)
  -14%	-10%	8%	-3%	14%[59 µM]	-1%
43) CC(C)CCN1NC2(CCCC(C)C2)NC1=S (stereo not drawn)
  x	x	71µM*	u	22µM*	-15%
44) Cc1cccc(C)c1OCC(=O)Nc1c(C(=O)c2ccccc2)oc2ccccc12
  x	x	x	x	56%[59 µM]	-3%
45) COc1ccccc1CCn1c(=O)c(-c2ccc(F)cc2)nc2cncnc21
  x	4%	16%	x	-2%[12.7 µM]	x
46) CC(=O)c1cccc(OCC(O)CN2CCN(S(=O)(=O)c3c(F)cccc3F)CC2)c1 (stereo not drawn)
  x	x	u	x	-32%[2.33 µM]	0%

Screening data as filed in PubChem BioAssay.
